T1: tau peptide A8119 (Homo sapiens)
T1 construct: source: synthetic peptide (Pepscan BV or New England Peptide)
T1 chain: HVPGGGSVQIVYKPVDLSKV

T2: tau peptide A6940 (human, biotin)
T2 construct: tau, human, residues 42-103; numbers count on: 2N4R tau (tau441); also called residues 42-103; source: synthetic peptide
T2 chain: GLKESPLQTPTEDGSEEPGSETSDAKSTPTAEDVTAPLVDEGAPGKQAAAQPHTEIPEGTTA


What was measured:
[1] = molecular target: T3, pathological tau of Alzheimer's disease brain (PHF-tau) (human (endogenous in brain tissue), UniProt P10636); assay: immunostaining of cells or tissue; immunohistochemistry on 5 μm formalin-fixed paraffin sections of human brain, WITH heat pretreatment (10 mM sodium citrate pH 6.0, autoclave 20 min at 130 °C); primary antibody overnight at 4 °C (0.1 μg/ml in Fig. 3); settings: one partner purified
T3 construct: human tau as it lies in aggregates of AD brain; A mixture of brain tau isoforms in aggregated form; also called PHFs; aggregated tau in neuropil threads and NFTs; source: endogenous, human AD brain: immunopurified PHF and sarkosyl-insoluble fraction of brain lysates (Western blot); formalin-fixed paraffin sections (immunohistochemistry); pooled brain homogenate (immunodepletion)

[2] = molecular target: T4, physiological tau of control human brain (human (endogenous in brain tissue), UniProt P10636); assay: as above; settings: one partner purified
T4 construct: human tau in neurons of control brain tissue; source: endogenous, human control brain, formalin-fixed paraffin sections of the hippocampal region

[3] = molecular target: T5, pathological tau structures in other tauopathies (FTLD, Pick's disease, PSP, PART) (human (endogenous in brain tissue), UniProt P10636); assay: as above; settings: one partner purified
T5 construct: human tau in aggregates of tauopathy brains; also called pathological tau structures in all these diseases; source: endogenous, post-mortem human brain tissue of FTLD, Pick's disease, PSP and PART cases

[4] = molecular target: T6, tau peptide A6897 (human, biotin); assay: BLI; Octet Red 384; biotinylated tau peptides immobilised on streptavidin biosensors; 100 nM antibody in solution; buffers of different ionic strength with 10% ForteBio kinetics buffer; qualitative association and dissociation curves; settings: both partners purified
T6 construct: numbers count on: 2N4R tau (tau441); source: synthetic peptide

[5] = molecular target: T1, tau peptide A8119; assay: crystal structure; Fab (20 mM HEPES pH 7.5, 7.55 mM NaCl) incubated with 4 mM peptide on ice overnight; sitting drop vapor diffusion; settings: both partners purified
[6] = molecular target: T7, tau peptide A7731 (Homo sapiens); assay: as above; settings: both partners purified
T7 construct: source: synthetic peptide (Pepscan BV or New England Peptide)

[7] = molecular target: T2, tau peptide A6940; assay: BLI; Octet Red 384; biotinylated tau peptides immobilised on streptavidin biosensors; 100 nM antibody in solution; buffers of different ionic strength with 10% ForteBio kinetics buffer; qualitative association and dissociation curves; settings: both partners purified

binding result [1] | binding result [2] | binding result [3] | Binder | further results
binds | binds | binds | dmCBTAU-27.1 (human IgG1), CBTAU-27.1 double mutant Ser27D to Tyr / Thr94 to Ile (antibody, V domains shown) VH: QVQLVESGPEMRKPGESLKISCKTSGYIFSDYWTAWVRQLPGKGLQWMGIIYSGDSDTRYHPSVQGHVTMSTDSSLTTAYLQWSSLKASDTGIYYCARLDARVDAGWQLDSWGQGTLVTVSS VL: IQLTQSPDSLAVSLGERATINCKSSQSVFYRDNNKNYLAWYQHKSGQPPKLLFFWASSRESGVSDRFSGSGSGTDFTLTIDNLQAEDVALYYCQHYFNIPHNFGQGTKLEIK | –
– | – | – | dmCBTAU-27.1 (antibody, V domains shown) VH: QVQLVESGPEMRKPGESLKISCKTSGYIFSDYWTAWVRQLPGKGLQWMGIIYSGDSDTRYHPSVQGHVTMSTDSSLTTAYLQWSSLKASDTGIYYCARLDARVDAGWQLDSWGQGTLVTVSS VL: IQLTQSPDSLAVSLGERATINCKSSQSVFYRDNNKNYLAWYQHKSGQPPKLLFFWASSRESGVSDRFSGSGSGTDFTLTIDNLQAEDVALYYCQHYFNIPHNFGQGTKLEIK | binding result [4]: binds
– | – | – | dmCBTAU-27.1 Fab (Fab, V domains shown) VH: QVQLVESGPEMRKPGESLKISCKTSGYIFSDYWTAWVRQLPGKGLQWMGIIYSGDSDTRYHPSVQGHVTMSTDSSLTTAYLQWSSLKASDTGIYYCARLDARVDAGWQLDSWGQGTLVTVSS VL: IQLTQSPDSLAVSLGERATINCKSSQSVFYRDNNKNYLAWYQHKSGQPPKLLFFWASSRESGVSDRFSGSGSGTDFTLTIDNLQAEDVALYYCQHYFNIPHNFGQGTKLEIK | binding result [5]: binds
binds | binds | binds | dmCBTAU-28.1 (human IgG1), CBTAU-28.1 double mutant Ser32 to Arg / Glu35 to Lys (antibody, V domains shown) VH: QVQLQQSGAEVKKPGESLKISCEASGYSFTNYWIGWVRQMPGKGLEWMGIIYPGDSDTRYSPPFQGQVTITADRSITTAYLEWSSLKASDTAMYYCARVGRPSKGGWFDPWGQGTLVTVSS VL: DIQMTQSPDSLAVSLGERATINCESSQTLLYRSNKKNYLAWYQQKPGQPPKLLISWASTPESGVPDRFSGSGSGTSFTLTISSLQAEDVAVYYCQQYYNSPYTFGQGTRLEIK | –
– | – | – | dmCBTAU-28.1 Fab (Fab, V domains shown) VH: QVQLQQSGAEVKKPGESLKISCEASGYSFTNYWIGWVRQMPGKGLEWMGIIYPGDSDTRYSPPFQGQVTITADRSITTAYLEWSSLKASDTAMYYCARVGRPSKGGWFDPWGQGTLVTVSS VL: DIQMTQSPDSLAVSLGERATINCESSQTLLYRSNKKNYLAWYQQKPGQPPKLLISWASTPESGVPDRFSGSGSGTSFTLTISSLQAEDVAVYYCQQYYNSPYTFGQGTRLEIK | binding result [6]: binds
– | – | – | dmCBTAU-28.1 (antibody, V domains shown) VH: QVQLQQSGAEVKKPGESLKISCEASGYSFTNYWIGWVRQMPGKGLEWMGIIYPGDSDTRYSPPFQGQVTITADRSITTAYLEWSSLKASDTAMYYCARVGRPSKGGWFDPWGQGTLVTVSS VL: DIQMTQSPDSLAVSLGERATINCESSQTLLYRSNKKNYLAWYQQKPGQPPKLLISWASTPESGVPDRFSGSGSGTSFTLTISSLQAEDVAVYYCQQYYNSPYTFGQGTRLEIK | binding result [7]: binds

Reference: article PMC5984341 (Acta Neuropathologica Communications, 2018)
